A selection: hits, their analogues and other compounds. The true share with any hit is near 2.1%.
ERp5 block = inhibitors of human ERp5 | AID 651711 | actives 0.05% (n = 350,000) | inhibition, % at 9.99 µM | ERp5 insulin aggregation, absorbance 650 nm, 90 min | Q15084;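 active means mean replicate inhibition above about 25%, with every replicate also reaching it, limit read from the data, passing the limit was not always enough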
Rev-erbA mod = modulators of human Rev-erb alpha DNA binding. P20393. Rev-erbα–FITC-DNA binding, fluorescence polarization, 90 min. activity, % at 10 µM. actives 0.79% (n = 370,000);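 active means activity above about 14%, limit read from the data; passing the limit was not always enough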;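 further: 0% = DMSO wells with 35 nM protein and 100% = DMSO wells with 750 nM protein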
PDI turbidity = PDI (human) enzyme inhibition; inhibition, % at 10 µM; AID 588391; PDI insulin aggregation turbidity, A650, 90 min; P07237; actives 0.052% (n = 350,000);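 active means mean inhibition across replicates of 30% or more, whatever share of single replicates reach that level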
GSIS activator = GLuc luminescence reporter in INS-1E cells, primary screen for activators of glucose-dependent secretion of insulin; activation, % at 16.6 µM; actives 0.61% (n = 370,000); INS-1E GLuc reporter insulin secretion, 2-3 h; AID 743287;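 active means lowest replicate activation of at least 40%, so every replicate reaches that level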;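 further: 0% = median of neutral control wells and 100% = median of IBMX positive control wells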
Yeast UUG start = yeast start codon fidelity modulation | S. cerevisiae UUG-firefly luciferase reporter, luminescence/redox ratio | activity score, % at 18.7 µM | 0.13% of 350,000 active | AID 602363;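 active means replicate mean at a twofold rise or more, about +100% in these data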;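 further: firefly luciferase made from a UUG start codon reports start codon fidelity; reporter light over untreated wells divided by growth signal over untreated wells; some hits fall short of that in this replicate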
SMARCA2 act = SMARCA2 function activation, primary screen; activation, % at 9.1 µM; MG213 cells, MMTV-luciferase reporter, dexamethasone, overnight; actives 1% (n = 370,000); in the data active means activation above about 7.8%;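 further: 0% = vehicle wells and 100% = reference activator wells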
SMARCA2 act conf = SMARCA2 activation, confirmation screen; shares compounds with SMARCA2 act; MG213 cells, MMTV-luciferase with dexamethasone, luminescence, overnight; MG213 cells expressing E1A, Rb sequestered; DMSO wells 0%, reference activator 100%; activation, % at 9.1 µM; actives 30% (n = 3,500); AID 652260;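 active means activation above its plate's cutoff, the mean activation of tested wells plus 3 SD, cut at about 7.9% in these data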
GAL4-VP16 Luc = counter-screen for SMARCA2 activators: GAL4-VP16 luciferase reporter activation | shares compounds with SMARCA2 act | HEK293 GAL4-VP16 pG5luc reporter, luciferase luminescence; scaled: DMSO wells 0%, SAHA wells 100% | activation, % at 9.1 µM | actives 41% (n = 3,500) | AID 686939;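 active means activation above the solvent-only control well mean plus 3 SD, averaged across control plates, cut at about 5.2% in these data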
Active calls of the source: *.

`CCCNC(=O)N1C[C@H]2[C@@H](c3ccccc31)[C@@H](CO)N2CC1CCCC1` gave ERp5 block 0, GSIS activator 10 and Yeast UUG start 10.
O=C(CCCn1c(=O)oc2ccccc21)Nc1ccccc1 was read as ERp5 block 1, Rev-erbA mod 0, PDI turbidity -6, GSIS activator -8, Yeast UUG start -8 and SMARCA2 act 0.
`O=C(CCn1c(=O)oc2ccccc21)Nc1ccccc1` gave Rev-erbA mod -1, PDI turbidity -2, Yeast UUG start -10, SMARCA2 act 9.0*, SMARCA2 act conf -2 and GAL4-VP16 Luc 1.
For COc1ccc(S(=O)(=O)N(C)C[C@@H]2OCCCC[C@H](C)Oc3ccc(NC(=O)NC(C)C)cc3C(=O)N([C@H](C)CO)C[C@@H]2C)cc1 the results were ERp5 block 3, GSIS activator -10 and Yeast UUG start 5.
CCCNc1ccc(C(=O)OCC)cc1[N+](=O)[O-] was read as ERp5 block 0, Rev-erbA mod 7, PDI turbidity -2, GSIS activator 12, Yeast UUG start -5, SMARCA2 act 9.3*, SMARCA2 act conf 8.4* and GAL4-VP16 Luc 4.
For COc1ccc(C(=O)Cn2c(=N)n(C)c3ccccc32)cc1 the results were ERp5 block -5, Rev-erbA mod 1, PDI turbidity 2, Yeast UUG start -8 and SMARCA2 act 5.
CCCCn1c(=N)n(CC(=O)c2ccc(OC)cc2)c2ccccc21 was read as ERp5 block 2, Rev-erbA mod 0, GSIS activator -1, SMARCA2 act 9.4*, SMARCA2 act conf 20* and GAL4-VP16 Luc -2.
For COc1ccc(C(=O)CN2Cc3ccccc3C2=N)cc1 the results were ERp5 block 2, Rev-erbA mod -3, PDI turbidity 2, SMARCA2 act 12*, SMARCA2 act conf 8.3* and GAL4-VP16 Luc 6.1*.
`Cc1nn(-c2cccc(C(F)(F)F)c2)c(Cl)c1/C=N/Nc1cccc(C(=O)O)c1` gave ERp5 block -2, Rev-erbA mod -6, PDI turbidity 1, GSIS activator -8, SMARCA2 act 12*, SMARCA2 act conf 10* and GAL4-VP16 Luc 16*.
Cn1c(CNC(=O)C2CCCCC2)cc2ccccc21 was read as ERp5 block 0, Rev-erbA mod 0, PDI turbidity -7, GSIS activator -4, Yeast UUG start -5, SMARCA2 act 8.2*, SMARCA2 act conf -1 and GAL4-VP16 Luc 0.
For O=C(O/N=C1\CCCc2ccccc21)c1ccc(F)cc1 the results were ERp5 block 4, Rev-erbA mod 0, PDI turbidity 7, Yeast UUG start -34, SMARCA2 act 9.7*, SMARCA2 act conf 5 and GAL4-VP16 Luc -1.
Cc1ccc2c(c1)/C(=N/OC(=O)c1ccc(F)cc1)CCS2 was read as Rev-erbA mod 9, PDI turbidity -13, Yeast UUG start -6 and SMARCA2 act -5.
Screening O=C(Nc1ccccn1)C(=O)Nc1ccccn1 returned ERp5 block -3, Rev-erbA mod -1, PDI turbidity 2, GSIS activator 0, SMARCA2 act 11*, SMARCA2 act conf 6 and GAL4-VP16 Luc 8.5*.
For Cc1ccc(Nc2ccc(C(=O)O)cc2N)cc1 the results were Rev-erbA mod 1, SMARCA2 act 9.4*, SMARCA2 act conf 1 and GAL4-VP16 Luc 9.5*.
For Cc1cc(C)cc(Nc2ccc(C(=O)O)cc2N)c1 the results were Rev-erbA mod -8, PDI turbidity 2, Yeast UUG start -7 and SMARCA2 act -1.
Cc1ccccc1-c1ccc([C@@H]2[C@H](CO)N3C(=O)CN(C(=O)c4cccnc4)C[C@@H]23)cc1 was read as GSIS activator -4.
`CC(C)Oc1ccc(C2CC(=O)N(c3cccc(C(=O)O)c3)C2=O)cc1` (stereo not drawn) gave Rev-erbA mod 0, PDI turbidity 6, Yeast UUG start -14, SMARCA2 act 9.8*, SMARCA2 act conf 2 and GAL4-VP16 Luc 2.
Screening Cc1cc(C)cc(OC(=O)CS(=O)c2ccc(C(F)(F)F)cc2[N+](=O)[O-])c1 (stereo not drawn) returned Rev-erbA mod 0, PDI turbidity -8, Yeast UUG start -12, SMARCA2 act 14*, SMARCA2 act conf 13* and GAL4-VP16 Luc 4.
O=C(CS(=O)c1ccc(C(F)(F)F)cc1[N+](=O)[O-])Oc1ccc(Cl)cc1 (stereo not drawn) was read as Rev-erbA mod -1, PDI turbidity -5, Yeast UUG start -21, SMARCA2 act 11*, SMARCA2 act conf 14* and GAL4-VP16 Luc 0.
`O=C(NCCO)c1ccc(Oc2ccc(C(F)(F)F)cc2[N+](=O)[O-])cc1` gave ERp5 block 2, Rev-erbA mod -3, PDI turbidity -11, GSIS activator -2 and SMARCA2 act -1.
Screening Cc1cccc(N2CCN(C(=O)c3nn(C)c4c3CS(=O)(=O)c3ccccc3-4)CC2)c1C returned ERp5 block 3, Rev-erbA mod -1, PDI turbidity -2, GSIS activator 2, Yeast UUG start -8, SMARCA2 act 10*, SMARCA2 act conf -2 and GAL4-VP16 Luc 0.
Screening Cn1nc(C(=O)N2CCN(c3ccccc3F)CC2)c2c1-c1ccccc1S(=O)(=O)C2 returned ERp5 block 3, Rev-erbA mod -1, PDI turbidity 4, GSIS activator -2 and SMARCA2 act -1.
`CCCNC(=O)C[C@@H]1CC[C@@H]2[C@H](COC[C@H](O)CN2C(=O)Nc2c(C)noc2C)O1` gave ERp5 block 1, GSIS activator 5 and Yeast UUG start -11.
O=C(Nc1ccc(N2CCCCC2)c(Cl)c1)c1ncn[nH]1 was read as Rev-erbA mod 3, PDI turbidity 1 and SMARCA2 act -2.
`O=C(Nc1ccc(CCC(=O)N2CCCC2)cc1)c1ncn[nH]1` gave Rev-erbA mod 2, PDI turbidity -1, Yeast UUG start 9, SMARCA2 act 8.2*, SMARCA2 act conf -5 and GAL4-VP16 Luc 2.
COc1ccc2[nH]c(C)c(CCN3C(=O)OC(C)(C)C3(C)O)c2c1 (stereo not drawn) was read as ERp5 block 1, Rev-erbA mod 3, GSIS activator -32, Yeast UUG start -4 and SMARCA2 act -1.

3 entries out of the list, sorted by molecular weight, smallest number first.
CCCNc1ccc(C(=O)OCC)cc1[N+](=O)[O-] was read as ERp5 block 0, Rev-erbA mod 7, PDI turbidity -2, GSIS activator 12, Yeast UUG start -5, SMARCA2 act 9.3*, SMARCA2 act conf 8.4* and GAL4-VP16 Luc 4.
Cn1c(CNC(=O)C2CCCCC2)cc2ccccc21 was read as ERp5 block 0, Rev-erbA mod 0, PDI turbidity -7, GSIS activator -4, Yeast UUG start -5, SMARCA2 act 8.2*, SMARCA2 act conf -1 and GAL4-VP16 Luc 0.
`Cc1nn(-c2cccc(C(F)(F)F)c2)c(Cl)c1/C=N/Nc1cccc(C(=O)O)c1` gave ERp5 block -2, Rev-erbA mod -6, PDI turbidity 1, GSIS activator -8, SMARCA2 act 12*, SMARCA2 act conf 10* and GAL4-VP16 Luc 16*.
